{"source": "paper PMC10865350", "about": "“Investigating Polypharmacology through Targeting Known Human Neutrophil Elastase Inhibitors to Proteinase 3” (Journal of Chemical Information and Modeling, 2024)", "assay_type_in_all_cases": "biochemical", "key": {"[1]": {"test_system": "human neutrophil elastase (HNE)", "assay": "HNE inhibition IC50 reported by Bayer HealthCare AG (literature values)", "details": "298.15 K; calculated from Bayer HealthCare AG IC50 values, Nussbaum et al. refs 9-11", "text": "To ensure we had the best models to represent the selected ligands and their interactions with the protein, we explored four different force field combinations for protein and ligands (Table 2) and compared the predicted values to published experimental data for HNE. […] The predicted free energies obtained with MSλD are provided in Table S3 together with the free energies derived from published experimental data."}, "HNE": {"target": "T1, HNE (Homo sapiens, UniProt P08246)", "T1 construct": "purchased Athens Research and Technology", "T1 sequence (P08246 30-267)": "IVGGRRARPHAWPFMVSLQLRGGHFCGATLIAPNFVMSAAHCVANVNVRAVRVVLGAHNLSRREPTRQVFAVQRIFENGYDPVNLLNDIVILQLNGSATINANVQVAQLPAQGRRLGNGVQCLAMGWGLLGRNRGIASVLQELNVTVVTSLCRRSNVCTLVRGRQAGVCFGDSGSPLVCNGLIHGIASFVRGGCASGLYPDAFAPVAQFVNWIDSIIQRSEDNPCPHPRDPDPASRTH", "assay": "Enzymatic activity assay, HNE (fluorogenic substrate MeOSuc-AAPV-AMC)", "details": "best enantiomer for compounds 5-8", "method": "(§1) II.1 Experimental details\nChemicals. All chemicals and reagents were of analytical grade. Enzymes, PR3 and HNE, were purchased from Athens Research and Technology.\nIndia) using published procedures.42 The substrate of HNE (MeOSuc-AAPV-AMC) was supplied by Santa Cruz Biotechnology.\nActivity assay. The enzymatic assays for both PR3 and HNE were conducted according to the method published in (Budnjo et al., 2014) with minor modifications. Briefly, 0.5 nM of enzyme […]\nsame buffer containing the inhibitors at various concentrations for 30 min at RT. For PR3, the […]\n(§2) 320, emission filter 420) at a final concentration of 5 μM while the HNE reaction was started by […]\n(§3) at a final concentration of 5 μM. The fluorescent signal was read every 30 second for 30 min at 30 °C using a fluorescent plate reader (Tecan Spark). The enzymatic activity was measured from the initial linear portion of the slope (fluorescent signal/min) of the time-course curve of reaction progress. The activity data were produced in triplicates. Data were fitted using nonlinear regression analysis (GraphPad Prism v.9) to determine the IC50 values."}, "Proteinase 3 (PR3)": {"target": "T2, Proteinase 3 (PR3) (Homo sapiens, UniProt P24158)", "T2 construct": "purchased Athens Research and Technology", "T2 sequence (P24158 28-256)": "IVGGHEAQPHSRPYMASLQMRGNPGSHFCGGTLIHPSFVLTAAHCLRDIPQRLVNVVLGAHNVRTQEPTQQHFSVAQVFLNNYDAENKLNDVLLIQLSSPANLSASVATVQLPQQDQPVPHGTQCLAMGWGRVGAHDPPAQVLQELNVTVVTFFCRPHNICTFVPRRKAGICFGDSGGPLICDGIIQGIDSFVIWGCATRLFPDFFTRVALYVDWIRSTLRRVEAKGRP", "assay": "Enzymatic activity assay, PR3 (FRET peptide Abz-VADnVADYQ-EDDnp)", "details": "best enantiomer for compounds 5-8", "method": "as §1\nChemicals. All chemicals and reagents were of analytical grade. Enzymes, PR3 and HNE, were purchased from Athens Research and Technology. Compound 1 was purchased from Medchem Express while compounds 5-8 were prepared by Syngene International Limited (Bangalore, India) using published procedures.42 The substrate of HNE (MeOSuc-AAPV-AMC) was supplied by Santa Cruz Biotechnology.\nActivity assay. The enzymatic assays for both PR3 and HNE were conducted according to the method published in (Budnjo et al., 2014) with minor modifications. Briefly, 0.5 nM of enzyme was incubated with buffer (50 mM HEPES pH 7.4, 750 mM NaCl, 0.5 % Igepal and 1 % DMSO) or same buffer containing the inhibitors at various concentrations for 30 min at RT. For PR3, the […]\nas §2\nas §3, with “Data were fitted using nonlinear regression analysis (GraphPad Prism v.9) to determine the IC50 values.” left out\nTable S11. Experimentally determined potency for the racemates (±) and the S-enantiomers."}}, "note": "Where two headings read alike, the source gives them in different places."}
{"smiles": "CC1=C(C#N)[C@@H](c2ccc(C#N)cc2S(C)(=O)=O)N(C)C(=O)N1c1cccc(C(F)(F)F)c1", "note": "[Compound 1, reference compound]", "values": [{"measurement": "ΔGexpt HNE (ΔG = RTln(IC50))", "setting": "[1]", "result": -13.8, "unit": "kcal/mol"}, {"measurement": "IC50", "setting": "HNE; IC50 HNE, 0.5 nM enzyme, 5 μM substrate, triplicates", "result": "0.5 ± 0.1", "unit": "nM"}, {"measurement": "IC50", "setting": "HNE; pIC50 HNE", "result": 0.501, "unit": "nM"}, {"measurement": "IC50", "setting": "Proteinase 3 (PR3); 0.5 nM enzyme, 5 μM FRET peptide, triplicates, read-out: IC50 PR3", "result": "101 ± 9", "unit": "nM"}, {"measurement": "IC50", "setting": "Proteinase 3 (PR3); read-out: pIC50 PR3 (converted)", "result": 100, "unit": "nM"}]}
